# Source: US20080064679A1, “Water Soluble Cannabinoids” (priority 2004, published 2008)
# Protein sequences, listed by entry. Tags and fused reporters are not part of them.
# UniProt P21554, whole entry: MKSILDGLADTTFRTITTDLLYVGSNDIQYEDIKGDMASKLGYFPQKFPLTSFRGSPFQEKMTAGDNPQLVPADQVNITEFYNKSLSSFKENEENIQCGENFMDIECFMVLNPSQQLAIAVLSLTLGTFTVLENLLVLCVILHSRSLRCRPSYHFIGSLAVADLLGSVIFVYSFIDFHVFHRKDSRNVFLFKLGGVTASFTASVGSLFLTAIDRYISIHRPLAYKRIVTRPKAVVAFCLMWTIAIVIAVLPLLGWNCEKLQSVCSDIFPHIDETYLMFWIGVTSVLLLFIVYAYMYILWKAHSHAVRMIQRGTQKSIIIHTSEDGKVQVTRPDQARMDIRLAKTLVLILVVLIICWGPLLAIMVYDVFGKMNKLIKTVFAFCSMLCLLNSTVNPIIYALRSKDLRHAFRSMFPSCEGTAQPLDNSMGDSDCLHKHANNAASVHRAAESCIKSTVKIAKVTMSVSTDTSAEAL
# UniProt P34972, whole entry: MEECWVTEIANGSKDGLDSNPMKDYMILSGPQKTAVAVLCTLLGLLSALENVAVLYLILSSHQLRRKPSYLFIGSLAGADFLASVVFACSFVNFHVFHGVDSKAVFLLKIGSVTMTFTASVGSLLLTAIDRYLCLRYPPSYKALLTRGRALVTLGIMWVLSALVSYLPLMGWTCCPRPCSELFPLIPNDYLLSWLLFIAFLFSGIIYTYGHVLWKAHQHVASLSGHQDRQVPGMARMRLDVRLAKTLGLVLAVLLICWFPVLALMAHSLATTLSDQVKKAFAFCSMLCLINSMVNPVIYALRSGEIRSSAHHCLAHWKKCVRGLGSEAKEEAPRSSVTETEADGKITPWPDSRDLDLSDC
# Where two headings read alike, the source gives them in different places.
# Legend:
# mice [1] = assay: Spontaneous activity (S.A.), mouse tetrad; format: in vivo; details: for S.A. ED50 (reducing spontaneous activity): i.v.
# human CB1 receptor [2] = molecular target: T1, human CB1 receptor (Homo sapiens, UniProt P21554); assay: CB1 receptor binding, [3H]CP55,940 displacement in membranes of transfected cells; details: for Ki: read-out: CB1 Ki, Tables 2b, 3b, 4a, mean±SEM
# mice [3] = assay: Rectal temperature (R.T.), mouse tetrad; format: in vivo; details: for R.T. ED50 (lowering rectal temperature): i.v.
# [4] = 1 mg of analog in 1 ml of water, visual observation
# mice [5] = assay: Tail-flick antinociception (T.F.), mouse tetrad; format: in vivo; details: for T.F. ED50 (antinociception in the tail-flick procedure): i.v.
# mice [6] = assay: Relative immobility (R.I.), ring-immobility test, mouse tetrad; format: in vivo; details: for R.I. ED50 (relative immobility): i.v.
# human CB1 receptor [7] = molecular target: T1, human CB1 receptor; assay: [35S]GTPγS binding assay in membranes of CB1 expressing cells; format: biochemical; details: for CB1 % CP Stim: maximal GTPγS binding as percentage of stimulation produced by CP 55,940; for EC50: read-out: CB1 EC50, [35S]GTPγS binding, mean±SEM
# human CB2 receptor = human CB2 receptor (Homo sapiens, UniProt P34972); assay: CB2 receptor binding, [3H]CP55,940 displacement in membranes of transfected cells; details: read-out: CB2 Ki, Tables 2b, 3b, 4a, mean±SEM
# mice [8] = assay: Tetrad model, all four behavioral measures together (time course, oral and i.c.v. administration); format: in vivo, mouse; details: for Activity in the behavioral tests after i.c.v. injection: analogs dissolved in water, THC in emulphor:ethanol:saline, Table 5 not given; for Time course of effects after i.v. administration: saline; for Potency following oral administration (four tests): 10 mg/kg, 30 minutes before the start of testing
# [9] = vehicle E:E:S (1:1:18), tested form: HCl
# [10] = vehicle E:E:S (1:1:18), tested form: hydrochloride
# [11] = vehicle saline, tested form: hydrochloride
# [12] = vehicle E:E:S (1:1:18), tested form: iodide
# [13] = vehicle saline, tested form: 2HCl
# [14] = figure legends, saline, tested form: hydrochloride
# [15] = vehicle saline, tested form: HCl
# [16] = vehicle saline, tested form: iodide
# [17] = vehicle saline, tested form: dihydrochloride
smiles,measurement,setting,value
CC1=CC[C@@H]2[C@@H](C1)c1c(OC(=O)C(C)CCN(C)C)cc(C(C)(C)CCCCC#N)cc1OC2(C)C (stereo partly shown),S.A. ED50 (reducing spontaneous activity),mice [1]; [9],0.40 µmol/kg
same,Ki,human CB1 receptor [2]; tested form: HCl,5.89 nM
same,R.T. ED50 (lowering rectal temperature),mice [3]; [9],0.40 µmol/kg
same,Solubility (water-soluble),[4]; tested form: HCl,Yes
same,T.F. ED50 (antinociception in the tail-flick procedure),mice [5]; [9],0.26 µmol/kg
same,R.I. ED50 (relative immobility),mice [6]; [9],0.59 µmol/kg
same,CB1 % CP Stim,human CB1 receptor [7]; tested form: HCl,119 ± 12.2%
same,EC50,human CB1 receptor [7]; tested form: HCl,16.1 nM
same,Ki,human CB2 receptor; tested form: HCl,0.44 nM
CC1=CC[C@@H]2[C@@H](C1)c1c(OC(=O)CCCN3CCOCC3)cc(C(C)(C)CCCCC#N)cc1OC2(C)C,S.A. ED50 (reducing spontaneous activity),mice [1]; [10],0.03 µmol/kg
same,Ki,human CB1 receptor [2]; tested form: hydrochloride,15.3 nM
same,R.T. ED50 (lowering rectal temperature),mice [3]; [10],0.10 µmol/kg
same,Solubility (water-soluble),[4]; tested form: hydrochloride,Yes
same,Activity in the behavioral tests after i.c.v. injection,mice [8]; tested form: hydrochloride,"active in all behavioral tests, albeit with considerable differences in potency between tests"
same,T.F. ED50 (antinociception in the tail-flick procedure),mice [5]; [10],0.03 µmol/kg
CC1=CC[C@@H]2[C@@H](C1)c1c(OC(=O)CCCN3CCCCC3)cc(C(C)(C)CCCCC#N)cc1OC2(C)C,S.A. ED50 (reducing spontaneous activity),mice [1]; [11],0.02 µmol/kg
same,Ki,human CB1 receptor [2]; tested form: hydrochloride,2.73 nM
same,R.T. ED50 (lowering rectal temperature),mice [3]; [11],0.03 µmol/kg
same,Solubility (water-soluble),[4]; tested form: hydrochloride,Yes
same,T.F. ED50 (antinociception in the tail-flick procedure),mice [5]; [11],0.07 µmol/kg
same,R.I. ED50 (relative immobility),mice [6]; [11],0.10 µmol/kg
same,CB1 % CP Stim,human CB1 receptor [7]; tested form: hydrochloride,93 ± 0.68%
same,EC50,human CB1 receptor [7]; tested form: hydrochloride,8.43 nM
same,Ki,human CB2 receptor; tested form: hydrochloride,0.2 nM
CC1=CC[C@@H]2[C@@H](C1)c1c(OC(=O)CCC[N+](C)(C)C)cc(C(C)(C)CCCCC#N)cc1OC2(C)C,S.A. ED50 (reducing spontaneous activity),mice [1]; [12],0.02 µmol/kg
same,Ki,human CB1 receptor [2]; tested form: iodide,14.7 nM
same,R.T. ED50 (lowering rectal temperature),mice [3]; [12],0.09 µmol/kg
same,Solubility (water-soluble),[4]; tested form: iodide,Yes
same,T.F. ED50 (antinociception in the tail-flick procedure),mice [5]; [12],0.05 µmol/kg
same,R.I. ED50 (relative immobility),mice [6]; [12],0.08 µmol/kg
same,CB1 % CP Stim,human CB1 receptor [7]; tested form: iodide,112 ± 1.18%
same,EC50,human CB1 receptor [7]; tested form: iodide,60.2 nM
same,Ki,human CB2 receptor; tested form: iodide,0.35 nM
CC1=CC[C@@H]2[C@@H](C1)c1c(OC(=O)CCCN3CCN(C)CC3)cc(C(C)(C)CCCCC#N)cc1OC2(C)C,S.A. ED50 (reducing spontaneous activity),mice [1]; [13],0.03 µmol/kg
same,Ki,human CB1 receptor [2]; tested form: 2HCl,2.01 nM
same,R.T. ED50 (lowering rectal temperature),mice [3]; [13],0.09 µmol/kg
same,Solubility (water-soluble),[4]; tested form: 2HCl,Yes
same,Activity in the behavioral tests after i.c.v. injection,mice [8]; tested form: 2HCl,potency similar to that of O-1057 with the exception of a low ability to reduce body temperature
same,T.F. ED50 (antinociception in the tail-flick procedure),mice [5]; [13],0.04 µmol/kg
same,R.I. ED50 (relative immobility),mice [6]; [13],0.09 µmol/kg
same,CB1 % CP Stim,human CB1 receptor [7]; tested form: 2HCl,82.0 ± 5.84%
same,EC50,human CB1 receptor [7]; tested form: 2HCl,15.9 nM
same,Ki,human CB2 receptor; tested form: 2HCl,0.78 nM
CC1=CC[C@@H]2[C@@H](C1)c1c(OC(=O)C(C)CCN(C(C)C)C(C)C)cc(C(C)(C)CCCCC#N)cc1OC2(C)C (stereo partly shown),"ED50 after i.v. administration, spontaneous activity",mice [1]; [14],0.45 µmol/kg
same,S.A. ED50 (reducing spontaneous activity),mice [1]; [11],0.45 µmol/kg
same,Ki,human CB1 receptor [2]; tested form: hydrochloride,81.7 nM
same,Change of CB1 receptor binding with the alpha methyl addition (versus O-2382),human CB1 receptor [2]; tested form: hydrochloride,15 fold
same,"ED50 after i.v. administration, rectal temperature",mice [3]; [14],1.9 µmol/kg
same,R.T. ED50 (lowering rectal temperature),mice [3]; [11],1.90 µmol/kg
same,Solubility (water-soluble),[4]; tested form: hydrochloride,Yes
same,Time course of effects after i.v. administration,"mice [8]; FIG. 9, 3 mg/kg (5 μmoles/kg) i.v., tested form: hydrochloride","At four hours, antinociception is present when almost all other effects have dissipated"
same,Potency following oral administration (four tests),mice [8]; tested form: hydrochloride,active in all measures
same,"ED50 after i.v. administration, tail-flick response",mice [5]; [14],1.0 µmol/kg
same,T.F. ED50 (antinociception in the tail-flick procedure),mice [5]; [11],1.00 µmol/kg
same,"ED50 after i.v. administration, relative immobility",mice [6]; [14],1.9 µmol/kg
same,R.I. ED50 (relative immobility),mice [6]; [11],1.92 µmol/kg
same,Ki,human CB2 receptor; tested form: hydrochloride,1.99 nM
CC1=CC[C@@H]2[C@@H](C1)c1c(OC(=O)CCCN(C)C)cc(C(C)(C)CCCCC#N)cc1OC2(C)C,S.A. ED50 (reducing spontaneous activity),mice [1]; [15],0.07 µmol/kg
same,Ki,human CB1 receptor [2]; tested form: HCl,2.61 nM
same,R.T. ED50 (lowering rectal temperature),mice [3]; [15],0.35 µmol/kg
same,Solubility (water-soluble),[4]; tested form: HCl,Yes
same,T.F. ED50 (antinociception in the tail-flick procedure),mice [5]; [15],0.09 µmol/kg
same,R.I. ED50 (relative immobility),mice [6]; [15],0.16 µmol/kg
same,CB1 % CP Stim,human CB1 receptor [7]; tested form: HCl,126 ± 11.3%
same,EC50,human CB1 receptor [7]; tested form: HCl,16.9 nM
same,Ki,human CB2 receptor; tested form: HCl,0.23 nM
CC1=CC[C@@H]2[C@@H](C1)c1c(OC(=O)C(C)CC[N+](C)(C)C)cc(C(C)(C)CCCCC#N)cc1OC2(C)C (stereo partly shown),Ki,human CB1 receptor [2]; tested form: iodide,45.4 nM
same,R.T. ED50 (lowering rectal temperature),mice [3]; [16],3.82 µmol/kg
same,Solubility (water-soluble),[4]; tested form: iodide,Yes
same,T.F. ED50 (antinociception in the tail-flick procedure),mice [5]; [16],1.99 µmol/kg
same,R.I. ED50 (relative immobility),mice [6]; [16],14.81 µmol/kg
same,CB1 % CP Stim,human CB1 receptor [7]; tested form: iodide,113 ± 4.65%
same,EC50,human CB1 receptor [7]; tested form: iodide,138 nM
same,Ki,human CB2 receptor; tested form: iodide,7.4 nM
CC1=CC[C@@H]2[C@@H](C1)c1c(OC(=O)C(C)CCN3CCN(C)CC3)cc(C(C)(C)CCCCC#N)cc1OC2(C)C (stereo partly shown),S.A. ED50 (reducing spontaneous activity),mice [1]; [17],0.23 µmol/kg
same,Ki,human CB1 receptor [2]; tested form: dihydrochloride,6.71 nM
same,R.T. ED50 (lowering rectal temperature),mice [3]; [17],0.40 µmol/kg
same,Solubility (water-soluble),[4]; tested form: dihydrochloride,Yes
same,T.F. ED50 (antinociception in the tail-flick procedure),mice [5]; [17],0.17 µmol/kg
same,R.I. ED50 (relative immobility),mice [6]; [17],0.22 µmol/kg
same,CB1 % CP Stim,human CB1 receptor [7]; tested form: dihydrochloride,97.9 ± 10.4%
same,EC50,human CB1 receptor [7]; tested form: dihydrochloride,15.6 nM
same,Ki,human CB2 receptor; tested form: dihydrochloride,1.56 nM
CC1=CC[C@@H]2[C@@H](C1)c1c(OC(=O)CCCN(C(C)C)C(C)C)cc(C(C)(C)CCCCC#N)cc1OC2(C)C,S.A. ED50 (reducing spontaneous activity),mice [1]; [15],0.04 µmol/kg
same,Ki,human CB1 receptor [2]; tested form: HCl,5.59 nM
same,R.T. ED50 (lowering rectal temperature),mice [3]; [15],0.85 µmol/kg
same,Solubility (water-soluble),[4]; tested form: HCl,Yes
same,T.F. ED50 (antinociception in the tail-flick procedure),mice [5]; [15],0.05 µmol/kg
same,R.I. ED50 (relative immobility),mice [6]; [15],0.06 µmol/kg
same,CB1 % CP Stim,human CB1 receptor [7]; tested form: HCl,77.6 ± 5.58%
same,EC50,human CB1 receptor [7]; tested form: HCl,17.9 nM
same,Ki,human CB2 receptor; tested form: HCl,1.98 nM
CC1=CC[C@@H]2[C@@H](C1)c1c(OC(=O)C(C)CCN3CCCCC3C)cc(C(C)(C)CCCCC#N)cc1OC2(C)C (stereo partly shown),S.A. ED50 (reducing spontaneous activity),mice [1]; [15],0.07 µmol/kg
same,Ki,human CB1 receptor [2]; tested form: HCl,11.3 nM
same,R.T. ED50 (lowering rectal temperature),mice [3]; [15],2.76 µmol/kg
same,Solubility (water-soluble),[4]; tested form: HCl,Yes
same,Time course of effects after i.v. administration,"mice [8]; FIG. 8, 1 mg/kg (1.6 μmoles/kg) i.v., tested form: HCl",analgesic and relative immobility effects of O-2486 were still present at two hours but not sedation and hypothermia
same,Potency following oral administration (four tests),mice [8]; tested form: HCl,highly effective in all four pharmacological measures
same,T.F. ED50 (antinociception in the tail-flick procedure),mice [5]; [15],0.33 µmol/kg
same,R.I. ED50 (relative immobility),mice [6]; [15],0.94 µmol/kg
same,CB1 % CP Stim,human CB1 receptor [7]; tested form: HCl,81.3 ± 17.9%
same,EC50,human CB1 receptor [7]; tested form: HCl,36.8 nM
same,Ki,human CB2 receptor; tested form: HCl,0.34 nM
